Experiment: Cell cycle arrest in human ALL5 cells assessed as accumulation at S-phase at 5 times antiproliferative IC50 after 24 hrs by propidium iodide staining based flow cytometry (reference value: 6.76%)
Assay type: functional

For `COc1cccc2c1C(=O)c1c(O)c3c(c(O)c1C2=O)C[C@@](O)(C(=O)CO)C[C@@H]3O[C@H]1C[C@H](N)[C@H](O)[C@H](C)O1` [DOXORUBICIN], which Activity is on record?
Its Activity is 4.07%.
